Results from patent US12109176B1, “Effect of glycerol on biofilm forming bacteria and fungi that changes the microbes sensitivity to pro and anti-biofilm non-toxic, non-bonded plasma amino acids and amino acid derivatives” (priority 2023, dated 2024).

Assays:
[1] = test system: fungal biofilm (C. albicans); assay: Fungal biofilm disruption assay; format: cell-based, Candida albicans
[2] = test system: fungal biofilm (C. albicans); assay: Fungal biofilm inhibition assay; format: cell-based, Candida albicans
[3] = Table F, in the presence of a sufficient concentration of glycerol

SMILES: N[C@@H](CCS)C(=O)O [Homocysteine, L-homocysteine]
- Reduce or Inhibit F Biofilm (dots: Disruption Biofilm Assay) ([1]; Table D, 0.1 to 5.0%): ● (Single dot [ie. ●] signifies little effect on the Disruption Biofilm Assay (from about 10 to less than 30%))
- Reduce or Inhibit F Biofilm (dots: Disruption Biofilm Assay) [1, 3]: ● (Single dot [ie. ●] signifies little effect on the Disruption Biofilm Assay (from about 10 to less than 30%))
- Reduce or Inhibit F Biofilm (squares: Inhibition Biofilm Assay) ([2]; Table D, 0.1 to 5.0%): ▪ (Single square [ie. ▪] signifies little effect on the Inhibition Biofilm Assay (from about 10 to less than 30%))
- Reduce or Inhibit F Biofilm (squares: Inhibition Biofilm Assay) [2, 3]: ▪ (Single square [ie. ▪] signifies little effect on the Inhibition Biofilm Assay (from about 10 to less than 30%))
